# Measured affinities in a library of Ab-14 light chain variants

Binding partner: SARS-CoV-2 spike HR2 peptide, sequence PDVDLGDISGINAS.

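The parent was found by panning a naive human phage display library on the peptide. Designed CDR sequences, proposed from the first random library and measured here. Their group label is 14L_En_Gen (En: ensemble of fine-tuned language models; Gen: genetic algorithm). AlphaSeq pools MATa yeast showing the antibodies with MATalpha yeast showing the peptide. Binding brings cells together so that they mate, and sequencing counts the barcode pairs among the diploids. Read counts were normalised to the haploid input and turned into Kd by a linear fit to BCL2-family pairs of known affinity, for each replicate. There are six technical replicates.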

The variants keep the heavy chain, the linker and the frameworks of Ab-14 (scFv order VH, the linker GGGGSGGGGSGGGGS, VL).
VH: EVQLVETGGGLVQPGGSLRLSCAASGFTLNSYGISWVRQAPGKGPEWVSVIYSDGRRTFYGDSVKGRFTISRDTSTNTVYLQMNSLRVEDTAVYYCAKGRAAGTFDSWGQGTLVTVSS
VL: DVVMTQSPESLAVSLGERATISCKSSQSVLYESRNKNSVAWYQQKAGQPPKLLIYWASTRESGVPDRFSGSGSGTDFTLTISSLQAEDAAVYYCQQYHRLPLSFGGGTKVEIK

Variants are written as CDR1, CDR2 and CDR3 of the light chain (limits as in the source). Parent: KSSQSVLYESRNKNSVA, WASTRES, QQYHRLPLS.
The read-out is the apparent dissociation constant on a log10 scale (nM): the lower, the stronger.
A pair that was not seen in that replicate is written "n.d."; this usually means weak binding, but a binder can also be missed.
Values of this round are not directly comparable with the first-round values of the same sequences.
In the paper, a design with two or fewer of six values counts as a poor binder.
Of ten entries with the parent sequence, four were seen in most replicates (averages 0.34 to 2.37), three in one and three in none, so single entries are noisy.
Three control strains display no target. For all light chain designs, 4% of the pairings with them gave a signal, with a median of 2.64 and one signal in twenty below 1.59, so weak values seen in few replicates may be background. The control count says in how many pairings with the empty strains this scFv gave a signal, with their mean in brackets.

CDR-L1,CDR-L2,CDR-L3,"log10 Kd, replicates",control signals
MISQLMNMGQFAINSVA,QASERSN,QQYDRLPLI,0.79 / 0.96 / 0.80 / 0.78 / 0.76 / 1.52,2 of 18 (1.98)
TIGSTLMYGSRNRSNVA,EVSERLN,QQYDRLPLL,2.94 / 2.63 / 3.44 / 2.56 / 3.65 / 2.14,1 of 18 (2.42)
MISQILNMGQFAINSVA,QASLRNE,QQYDRLPLE,0.96 / 0.89 / 0.94 / 0.46 / 0.55 / 0.88,2 of 18 (2.92)
KVSEFMRGLMKMQDSIA,DNETRPN,QQYDRLPLS,n.d. / 1.73 / n.d. / n.d. / 1.79 / 3.40,0 of 18
HMSMLTMMGMRQRNSVA,QMTMREN,QQYDRLPLT,1.41 / n.d. / n.d. / 1.38 / 1.14 / n.d.,1 of 18 (1.35)
MISQIYNMGQFAINSVA,QASIRNA,QQYDRLPLM,0.62 / 0.80 / 0.90 / 0.92 / 0.74 / 1.00,1 of 18 (0.93)
TISQMTSLFSQTINNVA,EVSTREQ,QQYDRLPLA,0.88 / 0.62 / 0.52 / 0.96 / 0.67 / 0.87,0 of 18
MMSSLMGYESRHINNVA,QTSTRED,QQYDRLPLM,-0.13 / -0.01 / 0.53 / 0.16 / 0.03 / 0.19,0 of 18
IVSQLMIWGMHYKNSIA,EAELRLN,QQYDRLPLI,n.d. / 1.25 / 1.91 / 2.24 / n.d. / 3.44,0 of 18
KIGATLNMLEHKQNNVA,DLVERGN,QQYFRLPLS,0.19 / 0.26 / -0.16 / -0.21 / -0.03 / 0.06,1 of 18 (2.62)
KISGMSNHQSSVANNVA,ENVTRVN,QQYFRLPLI,1.15 / 1.04 / 1.11 / 1.20 / 1.13 / 1.26,1 of 18 (1.32)
KLYSITGTEKVHGNNVA,EMETREE,QQYNRLPLS,0.26 / 0.26 / -0.05 / 0.01 / 0.09 / 0.31,1 of 18 (2.38)
QISQVMGLSMHGTNNVA,QMETREE,QQYDRLPLS,1.09 / 1.00 / 0.92 / 0.94 / 0.81 / 0.77,0 of 18
HMSMLTLGGLRHKNSVA,QMTTREN,QQYDHLPLS,0.52 / 0.24 / 0.01 / 0.49 / 0.36 / 0.65,0 of 18
KITAGMRFEQKASNNIA,EVTQRSK,QQYYRLPLS,1.09 / 0.92 / 0.81 / 1.19 / 0.91 / 1.34,1 of 18 (3.92)
SISQLLNFELKIGNNVA,QMETRVN,QQYDRLPLS,n.d. / n.d. / 1.07 / 2.18 / n.d. / 1.02,0 of 18
MISQLYNMGTFAINSVA,QASLRNE,QQYDRLPLM,0.95 / 0.70 / 0.45 / 0.53 / 0.97 / 0.83,0 of 18
HITYGMYVSGRYKSNIA,QAETREK,QQYDRLPLI,0.78 / 1.50 / 0.59 / 0.92 / 0.89 / 1.22,0 of 18
MLSEVLHMLGVKKNSIA,DLVLRAN,QQYHRLPLG,n.d. / n.d. / n.d. / n.d. / 1.81 / n.d.,0 of 18
HITYGMQVAGRHSKSIA,QAEERAS,QQYDRLPLI,1.47 / 1.45 / 0.85 / 1.35 / 0.73 / 0.87,0 of 18
KLASVTGTEKVHGNNVA,EMETRER,QQYNRLPLS,-0.04 / -0.18 / -0.26 / -0.56 / -0.20 / -0.05,1 of 18 (2.72)
KIGMTLNQLLQKKNNVA,DLVERET,QQYFRLPLS,0.46 / 0.01 / 0.25 / 0.26 / 0.38 / 0.42,0 of 18
MISQIYNVGQFAINSVA,QASTRNA,QQYDRLPLI,1.74 / 1.08 / 1.58 / 1.44 / 1.68 / 1.83,3 of 18 (2.33)
MMSQVTGMGARHRNNVA,QTSTREP,QQYDRLPLI,1.67 / n.d. / 1.53 / 1.04 / 1.31 / 2.22,0 of 18
KISQMIRVGSTHSNSIA,EEVTRAK,QQYHRLPLA,1.13 / 1.43 / 1.50 / 1.42 / 1.24 / 1.32,2 of 18 (2.51)
TLYGLTNSMSKNKNNVA,EMSTREA,QQYDRLPLV,1.03 / 0.75 / 0.94 / 0.68 / 0.52 / 1.39,0 of 18
MIGEMLMAGQYKINSVA,QANLRAE,QHYNRLPLE,0.15 / 0.42 / 0.10 / 0.46 / 0.25 / 0.25,2 of 18 (3.49)
MLSMLADYSQVSKNSVA,EMETREN,QQYDRLPLI,1.86 / 2.03 / 3.03 / 1.85 / 2.43 / 3.24,0 of 18
IISEVMNTLTRHGNNVA,DLAERED,QQYFRLPLS,1.14 / 1.42 / 1.30 / 1.33 / 0.89 / 1.34,0 of 18
KITATMRFEQKASNNIA,EVEQRTK,QQYYRLPLS,0.82 / 0.92 / 0.72 / 0.74 / 0.82 / 0.86,0 of 18
MVSQLMLWGLHYKNSIA,EAQTRVN,QQYDRLPLF,2.33 / 2.88 / 2.79 / 2.40 / 2.43 / 1.98,0 of 18

Reference: Li et al. 2023, doi:10.1038/s41467-023-39022-2. File: FLAb, binding data.